Test results taken from PubChem BioAssay AID729 (The Scripps Research Institute Molecular Screening Center, 2007).
This is a selection; strong and weak results do not stand in their true shares. Some tests of the compounds listed are not included; inactive here does not mean inactive elsewhere. Calls of active or inactive are those of the source. Rule as the data show it: active = activation above about 16%; inactive = the rest.

The chains behind the UniProt entries cited, without tags or fusion partners.
UniProt O95136, whole entry: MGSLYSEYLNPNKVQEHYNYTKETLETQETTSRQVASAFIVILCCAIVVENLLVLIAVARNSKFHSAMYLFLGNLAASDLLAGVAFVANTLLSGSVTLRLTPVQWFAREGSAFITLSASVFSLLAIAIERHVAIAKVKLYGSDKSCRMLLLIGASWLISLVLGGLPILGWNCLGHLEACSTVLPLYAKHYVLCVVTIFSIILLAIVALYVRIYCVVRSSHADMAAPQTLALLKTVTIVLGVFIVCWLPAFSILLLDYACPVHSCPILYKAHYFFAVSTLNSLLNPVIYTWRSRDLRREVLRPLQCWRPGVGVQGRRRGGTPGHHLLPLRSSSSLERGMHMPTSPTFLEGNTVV

The molecules below were run against Sphingosine 1-phosphate receptor 2 (Homo sapiens) (UniProt O95136) (assay: activation of human S1P2 receptor – cell-based, primary screen (AID 729;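 also: 0% = vehicle low control and 100% = maximal reference agonist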)). Settings: S1P2-expressing cell line, agonist reporter read-out; at 4.5 µM; stronger effect = higher value.
With `CC(C)N1C(=O)CC2(CCN(CCOC(=O)C(O)(c3ccccc3)c3ccccc3)CC2)C1=O` the activation was inactive: -3.02%. In the case of `CN(C)c1cccc(C(=O)NCC2(N(C)C)CCCCC2)c1`, the activation is reported as inactive: -1.2%. In the case of `O=C(OC1CN2CCC1CC2)C(CO)(c1ccccc1)c1ccccc1` (stereo not drawn), the activation is reported as inactive: -7.41%.
